AlphaSeq binding of Ab-14 light chain variants to a spike HR2 peptide

Antigen: PDVDLGDISGINAS, a 14-residue peptide of the SARS-CoV-2 spike HR2 region.

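Phage display of a naive human antibody library on the peptide gave the parent. This is the validation round: designs drawn from the data on random variants, tested in the same kind of assay. Their group label is 14L_En_HC (En: ensemble of fine-tuned language models; HC: hill climbing; a sequence that several methods proposed may carry one label only). The assay is AlphaSeq: two haploid yeast populations carry antibody and antigen on their surface. After mating in shaken culture at 30 °C for 16 h, diploids were selected and their barcode pairs sequenced. Read counts were normalised to the haploid input and turned into Kd by a linear fit to BCL2-family pairs of known affinity, for each replicate. The assay was run in six technical replicates.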

Ab-14 is the parent antibody, in scFv form: VH, then a (GGGGS)3 linker, then VL. The heavy chain is unchanged in all variants.
VH: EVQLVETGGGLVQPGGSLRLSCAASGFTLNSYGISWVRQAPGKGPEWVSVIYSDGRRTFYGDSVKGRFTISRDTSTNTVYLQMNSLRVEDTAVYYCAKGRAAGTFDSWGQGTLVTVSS
VL: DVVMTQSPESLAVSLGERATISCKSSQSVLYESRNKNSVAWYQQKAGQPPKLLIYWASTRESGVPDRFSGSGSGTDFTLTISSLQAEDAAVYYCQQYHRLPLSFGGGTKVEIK

Sequences are complete VL domains.
Affinities are written as log10 Kd with Kd in nM; a lower number is a better binder.
Averages over replicates are reported, and they cover detected replicates only.
"ND" marks a missing value. The strain was present, yet no cells mated with the target were sequenced in that replicate, which points to weak or no binding.

VL | log10 Kd, replicates | log10 Kd (nM), mean | empty controls
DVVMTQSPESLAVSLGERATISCKISQLVNFLGKQKNSVAWYQQKAGQPPKLLIYQMSTREEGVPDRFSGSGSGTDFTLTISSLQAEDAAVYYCQQYDRLPLSFGGGTKVEIK | 0.59 / -0.06 / 0.30 / 0.94 / 0.40 / 0.32 | 0.41 | 0 of 18
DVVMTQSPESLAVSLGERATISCTVGQVTMVEEYNKDSVAWYQQKAGQPPKLLIYQASTRLEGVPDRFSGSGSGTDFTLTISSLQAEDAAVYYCQDYHRLPLSFGGGTKVEIK | ND / 1.32 / 1.85 / ND / ND / ND | 1.58 | 0 of 18
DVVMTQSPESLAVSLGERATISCSLMQVGGYESNNKNSIAWYQQKAGQPPKLLIYDLRTRENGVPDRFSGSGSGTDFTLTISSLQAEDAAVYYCQQYHRLPLSFGGGTKVEIK | 1.06 / 0.10 / 0.16 / 0.53 / 0.25 / 0.55 | 0.44 | 1 of 18 (1.71)
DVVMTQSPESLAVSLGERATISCMLSQMFEGLSTSKNPVAWYQQKAGQPPKLLIYQVSTREEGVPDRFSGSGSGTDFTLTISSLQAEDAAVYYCQQYHRLPLSFGGGTKVEIK | ND / ND / ND / ND / ND / ND | ND | 0 of 18
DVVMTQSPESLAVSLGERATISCKISQMSTIESIHHNSVAWYQQKAGQPPKLLIYQTSTRESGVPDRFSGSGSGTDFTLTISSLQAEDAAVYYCQQYDRLPLSFGGGTKVEIK | 1.14 / 0.73 / 0.59 / 0.82 / 0.79 / 1.34 | 0.90 | 1 of 18 (1.63)
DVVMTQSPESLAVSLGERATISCALSQSMDMTSRNKNSVAWYQQKAGQPPKLLIYDLTTRVNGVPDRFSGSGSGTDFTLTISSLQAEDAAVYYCQQYHRLPLSFGGGTKVEIK | 0.20 / 0.03 / 0.02 / 0.16 / 0.08 / 0.29 | 0.13 | 1 of 18 (1.70)
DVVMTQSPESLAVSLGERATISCKISQMYRYEQQNSSSIAWYQQKAGQPPKLLIYEANEREQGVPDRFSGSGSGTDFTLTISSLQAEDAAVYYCQSYHRLPLSFGGGTKVEIK | 3.77 / ND / ND / 2.83 / 2.76 / ND | 3.12 | 1 of 18 (2.68)
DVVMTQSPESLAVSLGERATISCIISQSMLYESATHNSIAWYQQKAGQPPKLLIYQTSTREEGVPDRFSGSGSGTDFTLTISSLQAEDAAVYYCQQYNHLPLSFGGGTKVEIK | 0.28 / 0.46 / 0.23 / 0.36 / -0.03 / 0.47 | 0.30 | 0 of 18
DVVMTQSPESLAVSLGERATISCKLYQSMGYLSRNKSSIAWYQQKAGQPPKLLIYDMSRRENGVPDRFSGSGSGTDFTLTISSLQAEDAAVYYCQQYHRLPLSFGGGTKVEIK | 1.06 / 0.83 / 0.73 / 0.81 / 0.92 / 1.10 | 0.91 | 1 of 18 (2.31)
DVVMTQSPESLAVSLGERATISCKVSQLVNFLGKNKNSVAWYQQKAGQPPKLLIYQMSTRESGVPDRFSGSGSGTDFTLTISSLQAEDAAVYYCQQYDRLPLSFGGGTKVEIK | 1.02 / 0.56 / 0.54 / 0.43 / 0.55 / 0.55 | 0.61 | 0 of 18
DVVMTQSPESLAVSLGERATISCKLRQMTLTEGYFKNNVAWYQQKAGQPPKLLIYQASTRENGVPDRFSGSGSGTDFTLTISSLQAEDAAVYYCQSYHRLPLSFGGGTKVEIK | ND / 1.11 / 1.24 / 1.02 / 1.63 / 1.95 | 1.39 | 0 of 18
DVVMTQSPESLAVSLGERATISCTISGMANYESTNKNSVAWYQQKAGQPPKLLIYELTTRGSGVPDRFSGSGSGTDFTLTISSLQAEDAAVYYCQQYERLPLSFGGGTKVEIK | 0.87 / 0.74 / 0.49 / 0.04 / 0.40 / 0.39 | 0.49 | 0 of 18
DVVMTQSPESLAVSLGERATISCALGDVTRMEQNKKNSIAWYQQKAGQPPKLLIYDMSTRESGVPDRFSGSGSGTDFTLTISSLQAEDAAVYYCQQYHRLPLSFGGGTKVEIK | -0.07 / 0.05 / -0.26 / -0.26 / -0.27 / -0.21 | -0.17 | 0 of 18
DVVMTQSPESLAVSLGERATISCQLLGATMQETYNKNSVAWYQQKAGQPPKLLIYHAETREDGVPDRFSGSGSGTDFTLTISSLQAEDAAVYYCQSYHRLPLSFGGGTKVEIK | 0.66 / 0.55 / 0.18 / 0.50 / 0.59 / 0.38 | 0.48 | 1 of 18 (2.43)
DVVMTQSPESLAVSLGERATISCMISDLTMYGLRNVNSVAWYQQKAGQPPKLLIYDLSTRGSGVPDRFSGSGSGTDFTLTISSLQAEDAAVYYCQQYHRLPLSFGGGTKVEIK | 0.48 / 0.41 / 0.05 / 0.13 / 0.11 / 0.41 | 0.26 | 1 of 18 (4.73)
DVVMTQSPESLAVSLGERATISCKISQLVNFEGKNKNSVAWYQQKAGQPPKLLIYQMSTRENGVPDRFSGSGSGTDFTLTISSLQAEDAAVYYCQQYDRLPLSFGGGTKVEIK | 0.31 / 1.01 / 0.50 / 0.35 / 1.39 / 1.22 | 0.80 | 0 of 18
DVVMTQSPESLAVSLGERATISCKLSVSMVLESFHKNNVAWYQQKAGQPPKLLIYENSTREEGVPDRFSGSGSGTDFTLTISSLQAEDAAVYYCQHYHRLPLSFGGGTKVEIK | ND / ND / ND / ND / ND / ND | ND | 0 of 18
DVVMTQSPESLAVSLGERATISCILYESVGTLSRNRNSVAWYQQKAGQPPKLLIYDNSTRESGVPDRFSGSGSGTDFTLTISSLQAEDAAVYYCQQYDRLPLSFGGGTKVEIK | ND / 2.22 / ND / ND / ND / ND | 2.22 | 0 of 18
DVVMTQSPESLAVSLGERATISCQLLYATMQGTYNRNSVAWYQQKAGQPPKLLIYHAETREDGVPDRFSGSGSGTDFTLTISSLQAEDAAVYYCQSYHRLPLSFGGGTKVEIK | 2.56 / ND / 1.41 / ND / 3.65 / ND | 2.54 | 0 of 18
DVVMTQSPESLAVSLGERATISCTLMQVGGYESNNKNSIAWYQQKAGQPPKLLIYDLRTRESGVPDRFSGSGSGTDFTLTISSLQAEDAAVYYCQQYHRLPLSFGGGTKVEIK | ND / ND / ND / ND / ND / ND | ND | 0 of 18
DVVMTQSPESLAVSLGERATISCMFSQLTYTGSRARNAVAWYQQKAGQPPKLLIYQAETRVNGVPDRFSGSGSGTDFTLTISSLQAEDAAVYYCQQYHHLPLIFGGGTKVEIK | 2.29 / 2.51 / 2.11 / 1.74 / 1.66 / 2.49 | 2.13 | 2 of 18 (2.19)
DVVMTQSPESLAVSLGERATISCKLYMSTGYESRNKDSIAWYQQKAGQPPKLLIYDNSTRGRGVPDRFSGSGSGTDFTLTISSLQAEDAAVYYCQQYYRLPLSFGGGTKVEIK | 1.02 / 0.78 / 0.81 / 1.02 / 1.04 / 1.13 | 0.97 | 1 of 18 (3.84)
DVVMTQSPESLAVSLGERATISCIISQSSLGEYHNKNSVAWYQQKAGQPPKLLIYQTSERGSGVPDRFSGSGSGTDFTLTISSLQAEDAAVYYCQQYDRLPLSFGGGTKVEIK | 0.29 / 0.18 / 0.16 / -0.08 / 0.06 / 0.30 | 0.15 | 3 of 18 (3.79)
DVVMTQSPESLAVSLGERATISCKLSQVTEYESRNKNNVAWYQQKAGQPPKLLIYDLTMRGSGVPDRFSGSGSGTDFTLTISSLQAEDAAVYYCQDYHRLPLSFGGGTKVEIK | -0.15 / -0.30 / -0.16 / -0.39 / -0.33 / -0.10 | -0.24 | 0 of 18
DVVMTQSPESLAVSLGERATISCKIGQMVNYESTHINAVAWYQQKAGQPPKLLIYQMSTREEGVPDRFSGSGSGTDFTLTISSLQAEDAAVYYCQQYFRLPLSFGGGTKVEIK | 2.76 / 1.18 / 0.87 / 1.37 / 0.59 / 1.36 | 1.36 | 0 of 18
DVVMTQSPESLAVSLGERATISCTISQMFLGESRNRNSVAWYQQKAGQPPKLLIYQASTREHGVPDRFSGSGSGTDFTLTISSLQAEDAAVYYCQSYDRLPLSFGGGTKVEIK | 1.14 / 1.26 / 0.93 / 1.09 / 0.65 / 1.25 | 1.05 | 0 of 18

The 4 strongest on average among those seen in every replicate, once more:

{"VL": "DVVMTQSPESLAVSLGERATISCKLSQVTEYESRNKNNVAWYQQKAGQPPKLLIYDLTMRGSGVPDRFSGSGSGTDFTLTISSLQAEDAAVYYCQDYHRLPLSFGGGTKVEIK", "log10 Kd, replicates": "-0.15 / -0.30 / -0.16 / -0.39 / -0.33 / -0.10", "log10 Kd (nM), mean": "-0.24", "empty controls": "0 of 18"}
{"VL": "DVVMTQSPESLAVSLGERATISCALGDVTRMEQNKKNSIAWYQQKAGQPPKLLIYDMSTRESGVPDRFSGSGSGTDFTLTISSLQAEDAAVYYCQQYHRLPLSFGGGTKVEIK", "log10 Kd, replicates": "-0.07 / 0.05 / -0.26 / -0.26 / -0.27 / -0.21", "log10 Kd (nM), mean": "-0.17", "empty controls": "0 of 18"}
{"VL": "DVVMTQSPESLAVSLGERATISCALSQSMDMTSRNKNSVAWYQQKAGQPPKLLIYDLTTRVNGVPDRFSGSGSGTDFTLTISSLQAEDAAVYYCQQYHRLPLSFGGGTKVEIK", "log10 Kd, replicates": "0.20 / 0.03 / 0.02 / 0.16 / 0.08 / 0.29", "log10 Kd (nM), mean": "0.13", "empty controls": "1 of 18 (1.70)"}
{"VL": "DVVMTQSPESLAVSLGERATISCIISQSSLGEYHNKNSVAWYQQKAGQPPKLLIYQTSERGSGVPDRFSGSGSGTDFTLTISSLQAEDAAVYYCQQYDRLPLSFGGGTKVEIK", "log10 Kd, replicates": "0.29 / 0.18 / 0.16 / -0.08 / 0.06 / 0.30", "log10 Kd (nM), mean": "0.15", "empty controls": "3 of 18 (3.79)"}

Nonspecific signal, from three strains lacking the peptide, appeared in 4% of pairings of all light chain designs, centred on 2.64 (5% of these signals below 1.59); values are not corrected for it. Also given: how often the same scFv was detected with the empty control strains, with their mean in brackets.
A sequence measured in both rounds can read differently, since the two assays cover different ranges.
The authors averaged sequences with at least three values out of six and counted those with two or fewer as poor binders.

The measurements come from Li et al. 2023 (doi:10.1038/s41467-023-39022-2) through the FLAb antibody collection.